Source: patent publication EP3705574A1, “SPLIT LUCIFERASE, AND HIGHLY SENSITIVE VITAMIN D RECEPTOR LIGAND DETECTION METHOD USING SAME” (Public University Corporation Toyama Prefectural University, priority 2017, dated 2019)

How the values were obtained:
[1] = test system: double molecular type LucN-[…] + LBD-LucC biosensor (split firefly luciferase, hVDR LBD 121-427 aa); details: 100 nM 1α,25(OH)2D3, COS-7 cells co-expressing both proteins, after 60 minutes
[2] = test system: 6xHN-LucN-[…] + 6xHN-LBD(R274L)-LucC (double molecular type, split firefly luciferase, hVDR LBD with R274L mutation); test: Luciferase assay in in vitro system, double molecular type biosensor; assay type: biochemical, human; details: 100 nM 1α,25(OH)2D3, in vitro

light emission response [1]: increased in light emission
responsiveness decreased compared to 6xHN-LBD-LucC [2]: about 25%
SMILES: C=C1/C(=C\C=C2/CCC[C@]3(C)[C@@H]([C@H](C)CCCC(C)(C)O)CC[C@@H]23)C[C@@H](O)C[C@@H]1O [1α,25(OH)2D3, 1α,25-dihydroxyvitamin D3]
